Target: Adrenergic receptor alpha-1 (Rattus norvegicus, UniProt P15823+P23944+P43140)
Test: Compound was evaluated for Adrenergic activity against Alpha-1 adrenergic receptor from rat aorta

The chains behind the UniProt entries cited, without tags or fusion partners. Where a name states a change or a piece, a line headed by the entry shows the natural chain unless it says otherwise.
UniProt P15823: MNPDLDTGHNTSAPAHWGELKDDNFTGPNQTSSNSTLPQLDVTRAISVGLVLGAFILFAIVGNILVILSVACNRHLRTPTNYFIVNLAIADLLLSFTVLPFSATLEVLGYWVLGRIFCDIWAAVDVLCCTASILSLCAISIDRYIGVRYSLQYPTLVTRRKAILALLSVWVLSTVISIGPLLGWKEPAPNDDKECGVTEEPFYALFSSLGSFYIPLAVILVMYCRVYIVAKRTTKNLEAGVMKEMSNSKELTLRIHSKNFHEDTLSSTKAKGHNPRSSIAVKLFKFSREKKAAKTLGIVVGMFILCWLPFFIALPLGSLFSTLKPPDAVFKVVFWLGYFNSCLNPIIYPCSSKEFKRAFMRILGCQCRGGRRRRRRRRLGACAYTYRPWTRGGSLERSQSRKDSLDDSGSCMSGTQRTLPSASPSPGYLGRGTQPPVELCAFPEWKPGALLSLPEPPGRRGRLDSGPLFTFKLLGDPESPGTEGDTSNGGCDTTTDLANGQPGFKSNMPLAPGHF
UniProt P23944: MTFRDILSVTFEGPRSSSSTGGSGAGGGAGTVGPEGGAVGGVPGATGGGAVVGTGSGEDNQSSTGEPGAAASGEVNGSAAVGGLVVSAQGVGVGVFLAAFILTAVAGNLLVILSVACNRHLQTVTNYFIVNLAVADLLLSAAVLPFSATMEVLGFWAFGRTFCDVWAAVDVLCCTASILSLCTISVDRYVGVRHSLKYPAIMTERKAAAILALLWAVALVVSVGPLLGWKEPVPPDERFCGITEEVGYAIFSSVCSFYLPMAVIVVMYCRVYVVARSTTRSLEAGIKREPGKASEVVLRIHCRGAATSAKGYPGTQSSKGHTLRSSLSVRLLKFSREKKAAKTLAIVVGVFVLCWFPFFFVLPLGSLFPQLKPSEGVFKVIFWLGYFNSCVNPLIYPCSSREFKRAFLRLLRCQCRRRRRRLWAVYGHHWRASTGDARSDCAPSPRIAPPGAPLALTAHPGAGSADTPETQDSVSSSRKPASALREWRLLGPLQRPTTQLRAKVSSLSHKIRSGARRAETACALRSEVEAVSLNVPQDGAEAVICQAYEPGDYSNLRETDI
UniProt P43140: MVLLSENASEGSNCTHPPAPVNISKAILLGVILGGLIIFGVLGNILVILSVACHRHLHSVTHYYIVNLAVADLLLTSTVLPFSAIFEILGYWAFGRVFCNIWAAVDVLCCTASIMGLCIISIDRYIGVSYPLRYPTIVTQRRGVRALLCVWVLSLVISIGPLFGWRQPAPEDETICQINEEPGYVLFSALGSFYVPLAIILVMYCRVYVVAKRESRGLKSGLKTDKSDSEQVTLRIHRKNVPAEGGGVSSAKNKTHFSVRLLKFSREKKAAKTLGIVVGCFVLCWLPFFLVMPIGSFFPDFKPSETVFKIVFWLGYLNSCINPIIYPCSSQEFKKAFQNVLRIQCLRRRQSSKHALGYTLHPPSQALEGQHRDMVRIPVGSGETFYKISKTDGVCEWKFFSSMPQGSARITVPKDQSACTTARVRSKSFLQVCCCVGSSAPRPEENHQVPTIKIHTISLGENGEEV

Molecule Cl.c1ccc2c(CC3=NCCN3)cccc2c1 [NAPHAZOLINE HYDROCHLORIDE] has an EC50 of 12 nM.
